Measured affinities in a library of Ab-14 heavy chain variants

Reference: Li et al. 2023, doi:10.1038/s41467-023-39022-2. File: FLAb, binding data.

The target is the same throughout: PDVDLGDISGINAS, from the HR2 region of SARS-CoV-2 spike.

Parent scFv Ab-14: VH joined to VL by three GGGGS repeats. Changes lie in the heavy chain CDRs alone.
VH: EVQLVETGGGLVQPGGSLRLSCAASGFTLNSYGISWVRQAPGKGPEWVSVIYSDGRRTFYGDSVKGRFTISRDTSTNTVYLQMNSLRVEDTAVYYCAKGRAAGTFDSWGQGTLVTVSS
VL: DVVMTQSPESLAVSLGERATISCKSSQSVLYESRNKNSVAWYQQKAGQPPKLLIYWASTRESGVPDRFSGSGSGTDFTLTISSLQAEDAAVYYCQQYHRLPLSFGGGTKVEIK

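The parent was found by panning a naive human phage display library on the peptide. Designed CDR sequences, proposed from the first random library and measured here. Group labels follow the data file (Ctrl: baseline library sampled from a position-specific scoring matrix, with some repeated check sequences; GPLM: also part of the Gaussian process libraries; Gen: genetic algorithm; a sequence that several methods proposed may carry one label only). The scFvs were displayed on barcoded MATa yeast, the peptide on MATalpha yeast. Mating (16 h, 30 °C) was followed by selection of diploids and sequencing of their barcodes. Each replicate has its own calibration line, from reference interactions of the BCL2 family. Mating was done six times.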

The parent's heavy chain CDRs are GFTLNSYGIS, VIYSDGRRTFYGDSVK, GRAAGTFDS; each variant's own CDRs replace them letter for letter. Scale: log10 of Kd in nM, estimated from mating counts; low values are strong binders. Replicates are averaged; those with no signal do not enter the mean. Where no diploid with the target was found in that replicate, the entry reads "n.d.": below detection, most likely a poor binder, though not proof of it. The range of this assay differs from that of the first round, and the authors advise against merging the two.

CDR-H1	CDR-H2	CDR-H3	group	log10 Kd, replicates	mean, log10 nM	empty controls
GFTLNSYGIS	VIYSDGLRTFYSDSVK	GNAAGTFDS	Ctrl	0.34 0.32 0.06 0.18 0.77 0.57	0.37	3/18 (2.13)
GFELESYGIS	VIYSDGRRTFYGDSVK	ERAAGTFFS	Ctrl	n.d. n.d. n.d. n.d. n.d. n.d.	n.d.	0/18
GFSVNSYGIS	VIYSDGRRTFYEDNVK	GRAAGTFDQ	Ctrl	0.15 0.22 0.18 0.74 0.50 0.38	0.36	0/18
GFTLNSYGIS	VIYSDGRRTFYGDKVK	GRAAGTFCS	Ctrl	n.d. n.d. n.d. n.d. n.d. n.d.	n.d.	0/18
GFTLNSYGIS	VIYSDGRRTQYGDSVK	GRAAGTFDT	Ctrl	0.97 1.62 0.81 0.39 0.48 0.93	0.87	0/18
GFALNSYGIS	VIYSDGERTFYGDKTK	GEAAGTFDS	Ctrl	n.d. n.d. n.d. 2.68 n.d. n.d.	2.68	1/18 (3.01)
GFTLNSYGIS	VIYSDGRRTFYMDKVR	GRAAGTFWS	Ctrl	n.d. n.d. n.d. 0.92 n.d. n.d.	0.92	0/18
GFPLNSYGIS	VIYSDGRRTFYKDSVK	GKAAGTFDS	Ctrl	n.d. n.d. n.d. n.d. n.d. n.d.	n.d.	0/18
GFDLNSYGIS	VIYSDGMRTFYADSVK	GRNAFTFDS	Ctrl	n.d. n.d. n.d. n.d. n.d. n.d.	n.d.	0/18
GETLNSYGIS	VIRSDGRRTFYGDSVK	GRWAGTFDS	Ctrl	n.d. n.d. n.d. n.d. n.d. n.d.	n.d.	0/18
GFTRNSYGIS	VIYSDGRRTFYGDSVK	GRAAGGFDS	Ctrl	0.33 1.56 0.48 1.21 0.73 0.90	0.87	0/18
GFTLLSYGIS	VIYSDGRLTFYGDSVK	GRAAGTFDQ	Ctrl	n.d. n.d. n.d. n.d. n.d. n.d.	n.d.	0/18
GFKLNSYGIS	VIYSDGRRTFYGDSVK	GREASTFTS	Ctrl	n.d. n.d. 2.15 n.d. n.d. n.d.	2.15	0/18
GFTLNSYGIS	VIYSDGRRTFYGDSVR	GRAAGAFDS	Ctrl	n.d. n.d. n.d. n.d. n.d. n.d.	n.d.	0/18
GFTLNDYGIS	VIYSDGWRTFYGDSVK	GRAAGTFHP	Ctrl	n.d. n.d. n.d. n.d. n.d. n.d.	n.d.	0/18
GFTLNSYGIR	VIYSDGRRTFYGDSVK	GNAAGTFDS	Ctrl	n.d. n.d. n.d. n.d. n.d. n.d.	n.d.	0/18
GFTLNSYGIS	VIYSDGRRTFYGDSVK	GRAAGLFDQ	Ctrl	n.d. n.d. n.d. n.d. n.d. n.d.	n.d.	0/18
GFTLNMYGIS	VIYSDGRRTFYGDSVK	GEAAGTFSS	Ctrl	n.d. n.d. 2.21 2.43 2.07 1.06	1.94	0/18
GFTLNSYGIS	VIYSDGRRTFYQDSVK	GRAATTVDS	Ctrl	n.d. n.d. n.d. n.d. n.d. n.d.	n.d.	0/18
GFTLNSYGIS	VIYSDGRRTFYKDSVK	GRAAGTFDS	Ctrl	1.41 2.14 2.05 n.d. n.d. 1.29	1.72	1/18 (2.26)
GFTLNSYGIS	VIYSDGRRTFYFDSVK	GKLAGTFDS	Ctrl	n.d. n.d. n.d. n.d. n.d. n.d.	n.d.	0/18
GFTLNSYGSS	VIYSDGRRTFYGDSVK	GRAAGTFDS	Ctrl	n.d. n.d. n.d. 2.24 n.d. n.d.	2.24	0/18
GFELNSYGIS	VIYSDGRRTSYQDSVK	GRAAGTFDS	Ctrl	n.d. -0.02 n.d. -0.22 n.d. 0.62	0.13	0/18
TFTLNSYGIS	VIYSDGRRTFYGDSVK	GRAAGTFNS	Ctrl	n.d. n.d. n.d. n.d. n.d. n.d.	n.d.	0/18
GFTVNSYGIS	VIYSDGRRTWYGDSVK	GRMADTFDS	Ctrl	n.d. n.d. n.d. n.d. n.d. n.d.	n.d.	1/18 (2.14)
DFTLNSYGIS	VIYSDRRRTFYTDSVK	GYAAGTFDS	Ctrl	n.d. n.d. n.d. n.d. n.d. n.d.	n.d.	0/18
GFTINSYGIS	VIYSDGRRTFYNDSVK	GSAFGLFDS	Ctrl	2.42 n.d. n.d. n.d. n.d. n.d.	2.42	1/18 (1.67)
GFTLNSYGIS	VIYSDGRRQFYIDSVA	GSNAGTFDS	Ctrl	n.d. n.d. n.d. n.d. n.d. n.d.	n.d.	0/18
GFTLNSYGIS	VIYSDGRRTAYADSVK	GRAAGTFFS	Ctrl	n.d. n.d. 4.71 n.d. n.d. n.d.	4.71	0/18
GFPLNSYGIS	VIYSDGRRTFYGDSVK	GRAPGTFDS	Ctrl	n.d. n.d. 1.33 n.d. 3.01 1.95	2.10	3/18 (1.68)
GFTLNSYGIS	VIYSDGCRTFYSDSVK	GRAALGFDS	Ctrl	n.d. n.d. n.d. n.d. n.d. n.d.	n.d.	0/18
GFTLNSYGIS	VIYADGRRTSYDDEVK	GRAAGTFHS	Ctrl	n.d. n.d. n.d. n.d. n.d. n.d.	n.d.	0/18
TFTLNSYGIS	VIYSDGRRTFYTDSVK	GDAAGEFDS	Ctrl	n.d. n.d. n.d. n.d. n.d. n.d.	n.d.	0/18
GFTLNSYGIS	VIYSDGRRTSYGDSVK	GRAAATFDS	Ctrl	n.d. n.d. n.d. n.d. n.d. n.d.	n.d.	0/18
GFTLNSYGIS	VIYADGRRTFYGDSVK	GRAAGIFDS	Ctrl	n.d. n.d. n.d. n.d. n.d. n.d.	n.d.	0/18
GFTLNEYGIS	VIYSDGRRTFYGDSVK	GRAKGTFDS	Ctrl	2.32 1.18 0.54 1.65 0.30 0.93	1.15	0/18
QFGLNSYGIS	VIYSDGRRTFYGDSVK	GRNAKTFDS	Ctrl	n.d. n.d. n.d. n.d. n.d. n.d.	n.d.	0/18
GFTINDYGIS	VIYSDGRRTFYGDSVK	GRAAGTFDS	Ctrl	1.74 0.70 0.75 0.37 0.77 1.17	0.92	0/18
GFDLNSYGIS	VIYSDGRRTFYGDSVK	GRAAGRFDS	Ctrl	n.d. n.d. n.d. n.d. n.d. n.d.	n.d.	1/18 (1.74)
GFTLNSYGIS	VIYSDGRRTAYGDSVK	GRAVGTMDM	Ctrl	n.d. n.d. n.d. n.d. n.d. n.d.	n.d.	0/18
GFTLNSYGIS	VIYSDGRRTFYQDSVK	GKAAGTFDS	Ctrl	n.d. 0.22 1.77 n.d. n.d. n.d.	0.99	0/18
GFTLNEYGIS	VIYSDGRRTFYGDSVK	GRYAGSFDS	Ctrl	n.d. n.d. n.d. n.d. n.d. n.d.	n.d.	0/18
GFTLNSYGIS	VIYSDGRRTFYGDSVK	GEAAGAFDS	Ctrl	n.d. n.d. n.d. n.d. n.d. n.d.	n.d.	0/18
GFTLNSYGIS	VIYSDGRRTFYGDSVK	VRLAGTFDS	Ctrl	n.d. n.d. n.d. n.d. n.d. n.d.	n.d.	0/18
GFTLNSYGIS	VIYADGRRTFYGDDVK	GRAAGTFDS	Ctrl+GPLM_Gen	-0.53 -0.31 -0.23 -0.04 -0.29 -0.15; -0.21 0.19 0.41 -0.30 0.57 -0.15	-0.09	1/36 (2.35)
GETLRSYGIS	VIYSDGRRTFYGDSVK	IRAADTFDS	Ctrl	n.d. n.d. n.d. n.d. n.d. n.d.	n.d.	0/18

The first 4 variants above that were never detected:

| CDR-H1 | CDR-H2 | CDR-H3 | group | log10 Kd, replicates | mean, log10 nM | empty controls |
|---|---|---|---|---|---|---|
| GFELESYGIS | VIYSDGRRTFYGDSVK | ERAAGTFFS | Ctrl | n.d. n.d. n.d. n.d. n.d. n.d. | n.d. | 0/18 |
| GFTLNSYGIS | VIYSDGRRTFYGDKVK | GRAAGTFCS | Ctrl | n.d. n.d. n.d. n.d. n.d. n.d. | n.d. | 0/18 |
| GFPLNSYGIS | VIYSDGRRTFYKDSVK | GKAAGTFDS | Ctrl | n.d. n.d. n.d. n.d. n.d. n.d. | n.d. | 0/18 |
| GFDLNSYGIS | VIYSDGMRTFYADSVK | GRNAFTFDS | Ctrl | n.d. n.d. n.d. n.d. n.d. n.d. | n.d. | 0/18 |

In the paper, a design with two or fewer of six values counts as a poor binder. Three control strains display no target. For all heavy chain designs, 1% of the pairings with them gave a signal, with a median of 2.08 and one signal in twenty below 0.84, so weak values seen in few replicates may be background. For each scFv, signals with the empty controls are counted beside the result, with their mean in brackets. Of ten entries with the parent sequence, four were seen in most replicates (averages 0.34 to 2.37), three in one and three in none, so single entries are noisy. Some sequences occur more than once in the pool; their replicates are listed entry by entry, parted by semicolons.